# PDI inh: PDI (human) enzyme inhibition; AID 588391; 0.052% of 350,000 active; P07237; PDI insulin aggregation turbidity, A650, 90 min; inhibition, % at 10 µM;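 active = mean inhibition across replicates of 30% or more, whatever share of single replicates reach that level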
# FGF22 binding: FGF22 (human) thermal shift binding. recombinant FGF22 thermal shift, SYPRO orange fluorescence; percent of sucrose octasulfate shift, DMSO zero. activity (Tm shift, normalised), % at 9.99 µM. 1.5% of 340,000 active. AID 651658;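 active = mean Tm shift, scaled 0 neutral to 100 positive control, at about 1.3% or above, every replicate too, limit read from the data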
# Yeast UUG start: alters start codon recognition fidelity in yeast; AID 602363; activity score, % at 18.7 µM; 350,000 tested, 0.13% active; S. cerevisiae UUG-firefly luciferase reporter, luminescence/redox ratio;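 active means replicate mean at a twofold rise or more, about +100% in these data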;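 further: firefly luciferase made from a UUG start codon reports start codon fidelity; reporter light over untreated wells divided by growth signal over untreated wells; some hits fall short of that in this replicate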
# S100A4 inh HTS: inhibitors of human S100A4 binding to myosin IIA peptide. P26447. S100A4/TAMRA-MyoIIA peptide fluorescence polarization. inhibition, % at 10.7 µM. 0.14% of 360,000 active. AID 652163;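 active = mean inhibition of at least 70% across replicates, with every replicate also reaching that level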
#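 Compound dosing: one dose per compound; test system: human S100A4 monomer with TAMRA-labelled myosin IIA peptide; probe or stimulus: TAMRA-labelled myosin IIA heavy-chain peptide probe, 5 nM; medium: HEPES buffer with Ca2+, pH 7.2; schedule: 5 min incubation before reading; benchmarks: neutral control DMSO, positive control TFP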
# SIRT5 block: blocks human SIRT5 desuccinylation of peptide. Q9NXA8. Purified SirT5, succinyl-peptide AMC, trypsin-coupled fluorescence. inhibition, % at 15 µM. 1.1% of 330,000 active; in the data active = inhibition above about 15%
# ERp5 inh: inhibitors of human ERp5; Q15084; ERp5 insulin aggregation, absorbance 650 nm, 90 min; inhibition, % at 9.99 µM; 0.05% of 350,000 active;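 active = mean replicate inhibition above about 25%, with every replicate also reaching it, limit read from the data, passing the limit was not always enough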
# A number is an active result; 0 = inactive; - = no result. Sampled rows, rich in hits. Any-hit rate of the full collection: about 2.2%.
SMILES,PDI inh,FGF22 binding,Yeast UUG start,S100A4 inh HTS,SIRT5 block,ERp5 inh
CC1=C(C(=O)N(C(C)C)C(C)C)CC(CC(=O)NC2CCCCC2)C(=O)N1CCCN1CCCC1=O (stereo not drawn),-,0,0,0,33,0
CC1=C(C(=O)N(C(C)C)C(C)C)CC(CC(=O)NCCN2CCOCC2)C(=O)N1CCCN1CCCC1=O (stereo not drawn),-,0,0,0,16,0
N=c1c(C(=O)NC2CCCCC2)cc2c(=O)n3ccccc3nc2n1Cc1ccc(F)cc1,0,0,0,0,23,0
O=C1CCCN1c1nccs1,0,44,-,0,0,0
COc1ccc2oc(=N)c(C(=O)NCc3ccccc3)cc2c1,0,0,0,0,20,0
C[C@@H]1CCCCO[C@@H](CN(C)S(=O)(=O)c2ccc(F)cc2)[C@H](C)CN([C@H](C)CO)C(=O)c2cc(NS(=O)(=O)c3ccc(Cl)cc3)ccc2O1,-,-,0,0,17,0
C[C@H](CO)N1C[C@H](C)[C@H](CN(C)S(=O)(=O)c2ccc(Cl)cc2)OCCCC[C@H](C)Oc2ccc(NS(=O)(=O)c3ccc(F)cc3)cc2C1=O,-,0,0,0,23,0
C[C@H]1CCCCO[C@H](CN(C)S(=O)(=O)c2ccc(Cl)cc2)[C@@H](C)CN([C@@H](C)CO)C(=O)c2cc(NS(=O)(=O)c3ccc(F)cc3)ccc2O1,-,0,0,0,23,0
C[C@@H]1CCCCO[C@H](CN(C)S(=O)(=O)c2ccc(F)cc2)[C@H](C)CN([C@H](C)CO)C(=O)c2cc(NS(=O)(=O)c3ccc(Cl)cc3)ccc2O1,-,-,0,0,0,0
C[C@H](CO)N1C[C@H](C)[C@H](CN(C)Cc2ccc(C(=O)Nc3ccccc3N)cc2)Oc2c(NS(=O)(=O)c3ccc(F)cc3)cccc2C1=O,-,0,-,0,0,0
COc1ccc2c3c([nH]c2c1)[C@H](CO)N(Cc1ccncc1)CC31CCN(C(=O)Cc2ccncc2)CC1,-,0,-,0,-,0
CO[C@H]1CN(C)C(=O)c2cc(NC(=O)C3CC3)ccc2OC[C@@H](C)N(C(=O)c2cccnc2)C[C@@H]1C,-,0,-,0,0,0
CCC(=O)Nc1ccc2c(c1)C(=O)N(C)C[C@@H](OC)[C@@H](C)CN(C(=O)NC(C)C)[C@@H](C)CO2,-,0,0,0,0,0
Cc1ccc(-n2c(SCC(=O)N3CCCc4ccccc43)nnc2-c2cccnc2)c(C)c1,0,43,-,0,0,0
O=C(NCCn1cc(CN2C(=O)COC[C@H]2c2ccccc2)nn1)Nc1ccccc1,-,0,-,0,0,0
COc1cc(C(=O)c2ccccc2Cl)c([N+](=O)[O-])cc1OC,0,44,0,0,0,0
COc1cc(C(=O)N2CCN(c3ccccc3)CC2)c([N+](=O)[O-])cc1OC,0,43,0,0,0,0
COc1cccc(-c2cc(C(=O)NCC3CCCO3)c3cc(Br)cc(C)c3n2)c1 (stereo not drawn),0,0,0,0,17,0
COc1ccc(/C=C2/C(=O)N(c3nc4ccccc4s3)N=C2CSc2ccc(Cl)cc2)cc1,0,0,-,0,18,0
C[C@@H]1CN([C@H](C)CO)C(=O)c2cccc(NC(=O)C3CCCCC3)c2O[C@H]1CN(C)Cc1ccc(C(=O)Nc2ccccc2N)cc1,-,0,0,0,0,0
CN(C)S(=O)(=O)c1ccc(Cl)c(NC(=O)COC(=O)CN2C(=O)C3CCCCC3C2=O)c1 (stereo not drawn),0,43,-,0,0,0
CCC1(c2ccc(F)cc2)NC(=O)N(CC(=O)Nc2cc(S(=O)(=O)N(C)C)ccc2Cl)C1=O (stereo not drawn),0,44,-,0,0,0
O=C(COC(=O)CN1C(=O)C2CCCCC2C1=O)Nc1cc(S(=O)(=O)N2CCOCC2)ccc1Cl (stereo not drawn),0,0,-,0,0,0
CCC1(c2ccc(F)cc2)NC(=O)N(CC(=O)Nc2ccc(S(N)(=O)=O)cc2)C1=O (stereo not drawn),0,0,-,0,0,0
C[C@@H]1CN([C@@H](C)CO)C(=O)c2cc(C#CCN(C)C)cnc2O[C@@H]1CN(C)Cc1ccccc1,-,0,0,0,0,0
SMILES,PDI inh,FGF22 binding,Yeast UUG start,S100A4 inh HTS,SIRT5 block,ERp5 inh
Cc1ccc2c(c1)[C@H]1[C@H](CO2)[C@H](c2ccccc2)[C@]2(C)C(=O)Nc3ccc(Cl)cc3C(=O)N12,0,0,0,0,16,0
C[C@@]12C(=O)Nc3ccc(Cl)cc3C(=O)N1[C@H]1c3cc(Cl)ccc3OC[C@@H]1[C@@H]2c1ccccc1,0,0,0,0,-,0
O=C(Nc1ccc(Cl)c(Cl)c1)N[C@H]1CC[C@@H](CCNC(=O)c2ccc(F)cc2)O[C@@H]1CO,-,0,-,0,0,0
C[C@@H]1CCCCO[C@H](CN(C)C(=O)Nc2ccc(C(F)(F)F)cc2)[C@@H](C)CN([C@@H](C)CO)C(=O)c2cc(NS(=O)(=O)c3ccc(F)cc3)ccc2O1,-,0,0,0,18,0
C[C@@H]1CCCCO[C@@H](CN(C)C(=O)Nc2ccc(C(F)(F)F)cc2)[C@@H](C)CN([C@H](C)CO)C(=O)c2cc(NS(=O)(=O)c3ccc(Cl)cc3)ccc2O1,-,0,0,0,0,0
C[C@H]1CCCCO[C@H](CN(C)C(=O)Nc2ccc(C(F)(F)F)cc2)[C@@H](C)CN([C@@H](C)CO)C(=O)c2cc(NS(=O)(=O)c3ccccc3)ccc2O1,-,0,0,86,0,0
C[C@@H]1CN([C@H](C)CO)C(=O)c2cc(NS(=O)(=O)c3ccc(Cl)cc3)ccc2O[C@@H](C)CCCCO[C@H]1CN(C)C(=O)Nc1ccc(C(F)(F)F)cc1,-,0,0,0,22,0
C[C@H]1CCCCO[C@@H](CN(C)C(=O)Nc2ccc(C(F)(F)F)cc2)[C@@H](C)CN([C@@H](C)CO)C(=O)c2cc(NS(=O)(=O)c3ccc(F)cc3)ccc2O1,-,0,0,0,0,0
C[C@@H]1CN([C@@H](C)CO)C(=O)c2cc(NS(=O)(=O)c3ccccc3)ccc2O[C@@H](C)CCCCO[C@H]1CN(C)C(=O)Nc1ccc(C(F)(F)F)cc1,-,0,-,0,-,0
COc1ccc(S(=O)(=O)Nc2cccc3c2O[C@@H](CN(C)C(=O)NC2CCCCC2)[C@@H](C)CN([C@@H](C)CO)C3=O)cc1,-,0,0,0,0,0
C[C@@H]1CN([C@H](C)CO)C(=O)Cc2cc(NS(=O)(=O)c3cccs3)ccc2O[C@H]1CN(C)Cc1ccncc1,-,0,0,-,-,-
CC=Cc1ccc2n(c1=O)C[C@H]1[C@H](CO)[C@@H](C(=O)NCCC)[C@@H]2N1CC1CCCC1 (mixture of isomers),-,0,-,0,0,0
COc1ccc2c3c(n(C)c2c1)[C@H](CO)N(C(C)=O)CC31CCN(C(=O)NC(C)C)CC1,-,0,-,0,0,0
